## Antibody variant affinities, Ab-14 light chain, assay B

From the AlphaSeq antibody data of Li et al. 2023 (doi:10.1038/s41467-023-39022-2), copy in the FLAb collection.

Target peptide (SARS-CoV-2 spike, HR2 region): PDVDLGDISGINAS

The variants keep the heavy chain, the linker and the frameworks of Ab-14 (scFv order VH, the linker GGGGSGGGGSGGGGS, VL).
VH: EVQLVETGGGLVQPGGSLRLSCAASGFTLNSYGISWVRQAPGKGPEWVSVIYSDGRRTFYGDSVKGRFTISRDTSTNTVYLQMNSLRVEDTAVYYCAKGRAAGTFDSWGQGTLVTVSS
VL: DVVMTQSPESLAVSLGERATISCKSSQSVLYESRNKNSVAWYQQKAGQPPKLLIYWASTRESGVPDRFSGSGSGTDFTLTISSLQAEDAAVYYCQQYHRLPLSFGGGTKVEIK

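The variants were designed computationally from a first round of random CDR variants and then made and measured. Their group label is 14L_GP_Gen (GP: Gaussian process model; Gen: genetic algorithm; a sequence that several methods proposed may carry one label only). The scFvs were displayed on barcoded MATa yeast, the peptide on MATalpha yeast. Pairs that bind mate more often; barcode pairs of the diploids are counted by sequencing. Scores were corrected for input abundance and mapped to Kd with protein pairs of known affinity run in the same pool. Mating was done six times.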

Changes read parent residue, position, new residue, counted from the first residue of the VL shown. Values are log10 of the apparent Kd in nM; lower means stronger binding. A pair that was not seen in that replicate is written "n.d."; this usually means weak binding, but a binder can also be missed.

changes,log10 Kd (nM) by replicate,empty controls
S25L+S26M+W56N,-0.17 -0.43 -0.09 -0.60 -0.24 -0.18,1 of 18 (2.10)
S25L+S26Q+V29F+W56G,-0.14 -0.27 0.00 -0.33 -0.13 -0.18,0 of 18
S25L+Q27G+W56N+S62Q,0.05 -0.26 -0.24 -0.38 -0.18 -0.15,0 of 18
S25L+S26Q+W56N+E61L+Q96D,0.08 -0.08 0.00 -0.04 -0.11 0.01,0 of 18
S25L+S26R+W56N+T59Q,-0.30 -0.25 -0.41 -0.53 -0.42 -0.31,1 of 18 (4.16)
S25L+V29C+W56N+T59Y,0.13 -0.03 0.09 -0.09 -0.07 0.12,2 of 18 (3.78)
S25L+S38N+W56H+S62Q,0.03 -0.14 -0.30 -0.45 -0.19 -0.06,0 of 18
S25L+Q27C+V29Q+W56E,-0.19 0.18 -0.21 0.06 0.09 -0.07,0 of 18
S25L+K36P+W56N+T59Q,-0.02 -0.20 -0.07 -0.43 -0.33 0.00,1 of 18 (2.62)
S25L+S26Q+L30P+W56N+E61C,1.15 0.57 0.71 1.86 1.25 1.33,0 of 18
S25V+S26E+W56N+A57G,-0.16 -0.58 -0.38 -0.47 -0.67 -0.40,1 of 18 (2.06)
S25L+S26A+W56N,-0.05 -0.53 -0.30 -0.90 -0.16 -0.01,0 of 18
S25L+S26Q+L30E+S38N+W56E,-0.62 -0.91 -0.37 -0.84 -0.58 -0.22,0 of 18
S25L+S26P+V29Q+S38A+W56Q,0.61 0.36 0.53 0.34 0.73 0.48,0 of 18
S25L+S26Q+V29W+S38N+W56N+T59Q,-0.57 -0.50 -0.70 -0.79 -0.57 -0.50,1 of 18 (1.79)
S25L+W56N+E61M+S62K,0.09 -0.04 -0.09 -0.20 -0.13 0.05,2 of 18 (3.30)
S25V+S26Q+V29Q+W56D,0.00 -0.24 -0.40 -0.06 -0.62 0.09,0 of 18
S25L+V29W+W56H+Q96D,0.23 0.17 0.09 0.11 0.07 0.22,1 of 18 (3.28)
S25L+S26P+L30P+W56N+E61M,0.76 0.77 1.91 0.99 0.78 1.40,0 of 18
S25I+V29Q+W56N+E61C,-0.09 -0.19 -0.21 -0.21 -0.04 -0.01,1 of 18 (3.80)
S25L+S33D+W56N+T59Q+S62Q,-0.25 -0.21 -0.23 -0.34 -0.28 -0.15,2 of 18 (1.93)
S25L+L30M+W56E+S62D,-0.38 -0.45 -0.57 -0.53 -0.62 -0.49,0 of 18
S25L+S26D+V29W+W56N,0.61 0.46 0.64 0.52 0.45 0.73,4 of 18 (3.66)
S25L+K36A+S38N+W56N+T59Q,-0.12 -0.45 -0.18 -0.40 -0.31 -0.12,0 of 18
S25L+V29F+S33Q+W56E,0.03 -0.35 -0.27 -0.26 -0.41 -0.20,1 of 18 (3.10)
K24H+S25L+S38N+W56N,-0.37 -0.41 -0.55 -0.65 -0.54 -0.31,0 of 18
S25L+S26Q+S38A+W56N+T59Q,-0.06 -0.06 -0.24 -0.49 -0.46 -0.22,1 of 18 (2.38)
S25L+S38N+W56G+E61S,0.05 0.53 0.27 0.14 0.22 0.48,0 of 18
S25L+S38N+W56N+S62W,-0.16 -0.14 -0.31 -0.25 -0.27 -0.01,2 of 18 (3.44)
S25L+S38N+W56N+E61M,0.00 -0.03 -0.08 -0.14 -0.12 -0.17,1 of 18 (3.72)
S25V+V29W+W56N+T59Q+E61L,0.21 0.15 0.01 0.00 0.14 0.10,2 of 18 (3.10)
S25F+V29W+W56N+T59Q+Q96D,n.d. n.d. n.d. n.d. 2.22 n.d.,0 of 18
S25V+V29W+W56N+T59Q+E61M,0.03 -0.10 0.03 -0.60 0.32 -0.22,0 of 18
K24H+S25L+S33D+W56N+T59Q,0.46 0.52 0.10 0.36 0.41 0.48,0 of 18

Repeated from above, the 4 best binders with a signal in all replicates:

changes,log10 Kd (nM) by replicate,empty controls
S25L+S26Q+V29W+S38N+W56N+T59Q,-0.57 -0.50 -0.70 -0.79 -0.57 -0.50,1 of 18 (1.79)
S25L+S26Q+L30E+S38N+W56E,-0.62 -0.91 -0.37 -0.84 -0.58 -0.22,0 of 18
S25L+L30M+W56E+S62D,-0.38 -0.45 -0.57 -0.53 -0.62 -0.49,0 of 18
K24H+S25L+S38N+W56N,-0.37 -0.41 -0.55 -0.65 -0.54 -0.31,0 of 18

Three control strains display no target. For all light chain designs, 4% of the pairings with them gave a signal, with a median of 2.64 and one signal in twenty below 1.59, so weak values seen in few replicates may be background. Also given: how often the same scFv was detected with the empty control strains, with their mean in brackets. Values of this round are not directly comparable with the first-round values of the same sequences. In the paper, a design with two or fewer of six values counts as a poor binder.